Measured affinities in a library of Ab-14 light chain variants

All variants were tested on one target, the spike HR2 peptide PDVDLGDISGINAS (SARS-CoV-2).

The variants keep the heavy chain, the linker and the frameworks of Ab-14 (scFv order VH, three GGGGS repeats, VL).
VH: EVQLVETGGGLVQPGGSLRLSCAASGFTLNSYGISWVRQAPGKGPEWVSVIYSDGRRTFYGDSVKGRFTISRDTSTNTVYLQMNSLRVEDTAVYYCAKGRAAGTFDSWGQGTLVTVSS
VL: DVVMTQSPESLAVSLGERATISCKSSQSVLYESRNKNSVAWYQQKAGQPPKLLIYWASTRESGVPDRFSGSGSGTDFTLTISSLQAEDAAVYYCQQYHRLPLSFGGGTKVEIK

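The starting antibody came from a phage panning campaign against this peptide. The library (AAYL50) carries one to three amino acid substitutions per variant, with no insertions or deletions. The assay is AlphaSeq: two haploid yeast populations carry antibody and antigen on their surface. Binding brings cells together so that they mate, and sequencing counts the barcode pairs among the diploids. A regression on co-assayed BCL2-family reference pairs converts the normalised counts of each replicate to an apparent Kd. The assay was run in three technical replicates.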

Positions count from residue 1 of the parent VL; S33E puts E in place of S.
Every variant below is changed at N35 of the VL (sequential numbering).
Numbers give log10(Kd / nM), so 0 is 1 nM and 3 is 1 µM. Smaller is tighter.
A mean of the replicates is given; it leaves out those without a signal.
An entry "nd" has no value in the source: the pair was not observed among the diploids in that replicate. This suggests poor binding but is not conclusive.
Background: pairings of library AAYL50 with three empty control strains gave a value in 18% of cases (median 4.19, 5th percentile 2.99). Values in that range, when seen in few replicates, are hard to tell from nonspecific mating.

For S33E/N35M/H98P, the assay gave 1.18, 1.41, 1.30 (mean 1.30). The variant N35D/E61P/H98V gave 0.86, 1.06, 1.02 (mean 0.98). The variant E32C/N35K/S103Q gave nd, nd, nd. The variant K24L/N35M/Q95A gave nd, 4.94, 4.28 (mean 4.61). The variant V29K/N35K/W56H gave nd, nd, nd. The variant Y31M/N35F/Q96F gave nd, 3.66, nd.

For N35P/N37H/A40P, the assay gave nd, nd, nd. The variant S33N/N35W gave 1.84, 2.19, 2.00 (mean 2.01). The variant Y31M/N35M/S103Y gave 5.70, nd, nd. With N35F the result was nd, 3.11, nd. With S26T/N35S/Q95G the result was 2.33, 2.01, 2.07 (mean 2.14). The variant Q27H/N35R/L100W gave 2.78, 2.53, 2.62 (mean 2.64).

For K24N/S25Q/N35H, the assay gave 1.42, 1.35, 1.34 (mean 1.37). For N35M/R60C/H98D, the assay gave nd, nd, nd. The variant N35D/S38L/H98I showed nd, nd, nd. With N35W the result was 1.39, 1.41, 1.60 (mean 1.47). The variant N35V/K36Y gave 1.52, 1.54, 1.66 (mean 1.57). For S28H/N35D/A40K, the assay gave nd, nd, nd.

The variant S26P/N35L/L102C showed 2.27, 2.86, 3.39 (mean 2.84). With N35Y/S38R/T59F the result was nd, nd, nd. With S25P/L30K/N35E the result was 2.73, 3.31, 2.74 (mean 2.93). For N35G/V39R/S58F, the assay gave nd, 3.87, nd. For N35H/W56K/T59L, the assay gave nd, nd, nd. The variant S28A/N35Q/V39G showed 3.96, 5.19, nd (mean 4.58).

The variant S33Q/R34T/N35R gave 0.50, 0.63, 0.61 (mean 0.58). The variant S26M/N35A/P101K showed 1.86, nd, 2.53 (mean 2.19). With Q27I/N35T/A40V the result was nd, nd, nd. With S26N/N35E/L100G the result was 2.90, 2.50, 2.68 (mean 2.69). With N35C the result was 1.32, 1.53, 1.53 (mean 1.46). The variant N35V/Y97T/P101M showed 1.48, 1.29, 1.51 (mean 1.43).

The variant S28M/S33P/N35V showed 1.73, 1.73, 1.81 (mean 1.76). The variant N35P/S58C/Q96D gave nd, nd, nd. With N35A/T59Y/Y97Q the result was nd, nd, nd. With N35Q the result was 0.67, 0.92, 0.80 (mean 0.80). The variant N35F/S62C/L102E gave 2.83, 2.28, 3.20 (mean 2.77). The variant N35W/W56D/S58H showed -0.12, 0.39, 0.25 (mean 0.17).

The variant L30G/N35E/S103Y showed nd, nd, nd. The variant N35C/S38L/Y97I gave nd, nd, nd. With S26E/N35M/Y97K the result was nd, nd, nd. For N35Q/L102K, the assay gave nd, nd, 3.46. For N35M/A40P/S58A, the assay gave nd, nd, nd. The variant Y31G/N35K/P101L showed nd, nd, nd.

For S26I/N35C/L100C, the assay gave nd, 3.58, nd. The variant Q27N/L30M/N35T gave 0.70, 1.13, 0.68 (mean 0.84). The variant N35D/A57P gave nd, 4.28, 3.99 (mean 4.14). The variant S26F/N35H/T59F showed 5.31, 3.48, 3.09 (mean 3.96). The variant N35H/W56M/Q95H showed 5.60, 4.00, nd (mean 4.80). The variant Q27H/N35V/S38P showed 1.13, 1.16, 1.08 (mean 1.12).

For S25R/R34C/N35V, the assay gave 2.82, 3.71, nd (mean 3.27).

The measurements come from Engelhart et al. 2022 (doi:10.1038/s41597-022-01779-4) through the FLAb antibody collection.